Values of other authors, collected in patent US20080206881A1, “DIAGNOSTIC MARKER FOR NEURODEGENERATIVE DISEASES” (priority 2007, published 2008).

System: ALS patients
Conditions: cited from earlier work

## Nc1nc2ccc(OC(F)(F)F)cc2s1 [RILUZOLE®, 2-amino-6-(trifluoromethoxxy)benzothiazole]
  survival in clinical trials: marginally prolonged survival
